In ChEMBL document CHEMBL4007427, “Inhibition of the Aldehyde Dehydrogenase 1/2 Family by Psoralen and Coumarin Derivatives” (J Med Chem, 2017):

How the values were obtained:
[1] = target: T1, Aldehyde dehydrogenase, dimeric NADP-preferring (Homo sapiens) (UniProt P30838); assay: Inhibition of full length recombinant human ALDH3A1 expressed in Escherichia coli BL21(DE3) assessed as remaining dehydrogenase activity by measuring NAD(P)H level at 10 uM preincubated for 2 mins followed by addition of propionaldehyde as substrate in presence of NAD+ by spectrophotometric method
T1 sequence (whole entry): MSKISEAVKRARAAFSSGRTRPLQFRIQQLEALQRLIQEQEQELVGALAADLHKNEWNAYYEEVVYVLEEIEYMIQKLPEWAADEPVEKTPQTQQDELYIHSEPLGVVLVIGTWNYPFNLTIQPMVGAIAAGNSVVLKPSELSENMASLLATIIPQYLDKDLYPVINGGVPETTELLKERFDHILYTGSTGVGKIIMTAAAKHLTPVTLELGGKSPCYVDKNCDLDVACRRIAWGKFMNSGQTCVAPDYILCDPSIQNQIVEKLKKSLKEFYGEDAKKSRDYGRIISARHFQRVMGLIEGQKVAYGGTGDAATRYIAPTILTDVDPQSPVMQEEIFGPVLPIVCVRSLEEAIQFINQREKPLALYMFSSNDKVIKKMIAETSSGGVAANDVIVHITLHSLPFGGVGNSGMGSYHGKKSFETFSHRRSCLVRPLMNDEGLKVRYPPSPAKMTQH

[2] = target: T2, Aldehyde dehydrogenase, mitochondrial (Homo sapiens, UniProt P05091)
T2 sequence (P05091 whole entry): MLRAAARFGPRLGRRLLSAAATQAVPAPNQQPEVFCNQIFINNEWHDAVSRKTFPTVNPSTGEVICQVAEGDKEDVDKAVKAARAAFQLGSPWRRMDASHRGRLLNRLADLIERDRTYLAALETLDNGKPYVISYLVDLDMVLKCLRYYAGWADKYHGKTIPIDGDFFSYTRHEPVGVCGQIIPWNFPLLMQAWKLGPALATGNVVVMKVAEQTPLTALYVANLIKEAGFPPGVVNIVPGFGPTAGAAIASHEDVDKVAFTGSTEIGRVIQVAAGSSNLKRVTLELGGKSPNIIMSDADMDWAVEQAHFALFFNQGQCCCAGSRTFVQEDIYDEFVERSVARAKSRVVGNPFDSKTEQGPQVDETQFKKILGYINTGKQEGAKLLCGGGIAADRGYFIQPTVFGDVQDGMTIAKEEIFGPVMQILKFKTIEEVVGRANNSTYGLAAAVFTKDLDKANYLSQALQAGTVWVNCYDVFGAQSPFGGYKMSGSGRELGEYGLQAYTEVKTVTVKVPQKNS

[3] = target: T2, Aldehyde dehydrogenase, mitochondrial; remark: listed apart in the source

Structure (SMILES)	Activity [1] [%]	Ki [2] [nM]	Ki [3] [nM]
COC(=O)C(C)Oc1ccc2c(C)cc(=O)oc2c1 (stereo not drawn)	94.5		
Cc1oc2cc3oc(=O)c(C)c(C)c3cc2c1C		87	35
